Experiment: Stability test (visual inspection of colour in the dark and under ambient light)
Type: physicochemical
Settings: precipitated product
Protocol: After this time, a visual inspection of the products was carried out and the products were protected in the dark again. After 12 hours, another visual inspection of the products was carried out. The products were then exposed to ambient light. After 5 hours, a visual inspection of the products was carried out.

Measured: color (visual inspection)

Partially Depolymerized Silver Chondroitin Sulfate (Bleaching Agent: Sodium Thiosulfate) [comparative example 6]
black: after 1 hour in the dark | after 5 hours of exposure to ambient light | after 12 hours in the dark

Reference: patent US20150011501A1, “PARTIALLY DEPOLYMERIZED GLYCOSAMINOGLYCAN SILVER AND GOLD SALTS” (priority 2012, published 2015)
